Values joined by “and” are separate entries in the source; they are usually repeats but may differ in a detail not shown here. Equal entries are not always repeated. This is a selection; strong and weak results do not stand in their true shares. Active and inactive are the calls of the source.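 The calls were made as follows: active = inhibition above the mean inhibition of all tested compounds plus 3 SD, set separately per screening campaign (cut at about 2.9% in these data); inactive = the rest.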
Molecular target: Eukaryotic translation initiation factor 2-alpha kinase 3 (Homo sapiens) (UniProt Q9NZJ5)
Experiment: block of dimerizer-induced PERK translation repression, primary screen, PERK inhibitor project, CHO PERK-DD cells, SEAP luminescence, HTS (AID 1416);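 also: PERK kinase domain activated by AP20187 dimerizer at 100 nM; 0% = DMSO with dimerizer and 100% = rapamycin at 8.4 µM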
Details: CHO PERK-DD fusion, SEAP luminescence translation reporter; at 5.6 µM; stronger effect = higher value

Protein sequences, listed by entry. Tags and fused reporters are not part of them. Lines headed by an entry give the natural chain unless they say otherwise; changes in a name come on top.
UniProt Q9NZJ5: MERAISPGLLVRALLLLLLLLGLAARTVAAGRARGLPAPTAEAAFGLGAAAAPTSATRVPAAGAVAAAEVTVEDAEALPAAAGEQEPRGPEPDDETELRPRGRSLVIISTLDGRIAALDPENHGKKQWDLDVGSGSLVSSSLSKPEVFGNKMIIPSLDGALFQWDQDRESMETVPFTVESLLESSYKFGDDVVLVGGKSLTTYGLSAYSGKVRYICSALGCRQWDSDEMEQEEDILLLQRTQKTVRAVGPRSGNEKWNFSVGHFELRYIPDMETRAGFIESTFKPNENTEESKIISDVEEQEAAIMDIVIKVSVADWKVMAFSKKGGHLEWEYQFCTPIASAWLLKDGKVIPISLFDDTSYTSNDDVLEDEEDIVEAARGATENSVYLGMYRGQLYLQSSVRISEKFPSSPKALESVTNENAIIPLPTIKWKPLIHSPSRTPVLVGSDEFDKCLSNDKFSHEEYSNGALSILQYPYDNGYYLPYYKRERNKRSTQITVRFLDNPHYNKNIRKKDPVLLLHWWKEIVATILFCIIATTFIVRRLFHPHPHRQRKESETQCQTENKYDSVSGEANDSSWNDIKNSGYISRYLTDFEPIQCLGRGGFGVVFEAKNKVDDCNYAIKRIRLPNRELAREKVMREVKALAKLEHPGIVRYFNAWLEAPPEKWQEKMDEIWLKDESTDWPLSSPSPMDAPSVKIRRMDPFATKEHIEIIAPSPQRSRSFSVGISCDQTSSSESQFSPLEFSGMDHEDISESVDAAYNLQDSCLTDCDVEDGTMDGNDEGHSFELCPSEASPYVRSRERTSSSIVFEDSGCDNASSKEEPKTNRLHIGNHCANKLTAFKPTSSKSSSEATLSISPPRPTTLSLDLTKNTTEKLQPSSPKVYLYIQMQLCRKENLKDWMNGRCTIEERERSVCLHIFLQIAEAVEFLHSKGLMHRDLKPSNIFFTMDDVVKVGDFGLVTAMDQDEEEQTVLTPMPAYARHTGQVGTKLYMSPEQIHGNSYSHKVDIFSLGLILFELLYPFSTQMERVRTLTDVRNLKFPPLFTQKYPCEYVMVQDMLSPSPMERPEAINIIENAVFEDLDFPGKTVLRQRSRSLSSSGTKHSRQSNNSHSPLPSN

SMILES | inhibition
O=C(OC1CN2CCC1CC2)c1cccc(Cl)c1 (stereo unspecified) | inactive: 0.2%
C(Cc1nn[nH]n1)Cc1nn[nH]n1 | inactive: 1.5%
Nc1ccc([As](=O)(O)c2ccc([N+](=O)[O-])cc2)cc1 | inactive: 0.81%
O=[As](O)(c1ccccc1)c1ccc(O)cc1 | inactive: -0.22%
CC(=O)NC(SC(=S)N(C)C)C(Cl)(Cl)Cl (stereo unspecified) | inactive: 0.72%
O=[N+]([O-])c1ncn(CCn2cnc([N+](=O)[O-])n2)n1 | inactive: 1.66%
O=P(Nc1nc2ccccc2s1)(c1ccccc1)c1ccccc1 | inactive: 0.52%
O=P(Nc1ccccn1)(c1ccc(Br)cc1)c1ccc(Br)cc1 | inactive: -0.27%
c1nnnn1CCn1cnnn1 | inactive: 0.6%
CC(C)C(=O)NC(Sc1ccccc1)C(Cl)(Cl)Cl (stereo unspecified) | inactive: 0.95%
O=P(Nc1nccs1)(c1ccccc1)c1ccccc1 | inactive: -0.41%
CC(=O)Nc1ccc(Oc2c([N+](=O)[O-])cc([N+](=O)[O-])cc2[N+](=O)[O-])cc1 | inactive: -0.33%
CC(=O)Nc1ccc([As](=O)(O)O)c(O)c1 | inactive: 1.04%
CC(C)(C)C(=O)NC(Sc1ccccc1)C(Cl)(Cl)Cl (stereo unspecified) | inactive: 1.48%
CCOc1ccc(C2=NCC(CBr)S2)cc1 (stereo unspecified) | inactive: -0.93%
O=P1(Nc2nc3ccc(Cl)cc3s2)COc2ccccc2O1 (stereo unspecified) | inactive: -0.19%
O=c1c2cc([N+](=O)[O-])ccc2[nH]c2c([N+](=O)[O-])cc([N+](=O)[O-])cc12 | inactive: -0.19%
CN(C)C(=O)Oc1noc2ccccc12 | inactive: 2.15%
Cc1ccccc1OP(=O)(Nc1ccccn1)Oc1ccccc1C | inactive: 0.86%
CCC(=O)N1C2C3N(C(=O)CC)C1C1N(C(=O)CC)C(C(N1C(=O)CC)N3C(=O)CC)N2C(=O)CC | inactive: 1.46%
CC(=O)NC(SC(=S)N(CC(C)C)CC(C)C)C(Cl)(Cl)Cl (stereo unspecified) | inactive: -0.11%
Cc1ccc(OP(=O)(Nc2ccccn2)Oc2ccc(C)cc2)cc1 | inactive: 0.2%
COC(=O)c1cc2c(s1)N=C(c1ccccc1)N(C)P2(=O)N1CCOCC1 (stereo unspecified) | inactive: -0.99%
Cc1ccc(NP(=O)(Oc2cccc(C)c2)Oc2cccc(C)c2)nc1 | inactive: 0.43%
CCOC(=O)NC(Sc1ccccc1)C(Cl)(Cl)Cl (stereo unspecified) | inactive: 0.25%
c1ccc(-c2nn[nH]n2)c(-c2nn[nH]n2)c1 | inactive: 0.17%

SMILES | inhibition
CCNC(=S)/N=C(\N)N[N+](=O)[O-] | inactive: 0.71%
O=C(NC1CCS(=O)(=O)C1)NP(=S)(Oc1ccccc1)Oc1ccccc1 (stereo unspecified) | inactive: -0.36%
Nc1cccc2ccc([As](=O)(O)O)cc12 | inactive: 1.72%
CCN(N=Nc1nonc1N)c1nonc1N | inactive: 0.91%
Cc1ccc(NP(=O)(Oc2ccccc2F)Oc2ccccc2F)nc1 | inactive: 0.63%
Cc1cc(SC(NC(=O)c2ccc(F)cc2)C(Cl)(Cl)Cl)ncn1 (stereo unspecified) | inactive: 0.9%
CCOP(=O)(Nc1ccccc1)OCC | inactive: 0.25% and inactive: 2.52%
O=P(Nc1nc2ccc(Cl)cc2s1)(c1ccccc1)c1ccccc1 | inactive: -0.44%
CC(=O)Nc1ccc([As](=O)(O)O)cc1 | inactive: -0.16%
O=C(O)c1ccccc1[As](=O)(O)O | inactive: 2.15%
O=C(NC(Sc1ccncn1)C(Cl)(Cl)Cl)c1ccccc1 (stereo unspecified) | inactive: 0.27%
Cc1c2non([O-])c-2c(C)[n+](=O)[n+]1[O-] | inactive: 2.23%
Oc1ccccc1CNc1ccccn1 | inactive: 0.98%
Nc1cc(N)c2nonc2c1[N+](=O)[O-] | inactive: 0.44%
CC(C)CC(=O)NC(Sc1ccc(Cl)cc1)C(Cl)(Cl)Cl (stereo unspecified) | inactive: 0.1%
CN1CCCC(OC(=O)C(c2ccccc2)c2ccccc2)C1 (stereo unspecified) | inactive: 0.95%
Clc1ccc(Cl)c(NC2=NCC(CBr)S2)c1 (stereo unspecified) | inactive: 1.44%
Cc1ccc(OP(=O)(Nc2nccs2)Oc2ccc(C)cc2)cc1 | inactive: 0.76%
COc1ccccc1OP(=O)(Nc1ccc(C)cn1)Oc1ccccc1OC | inactive: 0.99%
Cc1ccc(N/C(=N/P(=O)(N2CCOCC2)N2CCOCC2)N2CCOCC2)cc1 | inactive: 1.29%
NC(=O)c1cc([N+](=O)[O-])cc([N+](=O)[O-])c1N | inactive: 0.01%
CC1CCN(C(=O)Oc2c(Cl)cc(Cl)c3cccnc23)CC1 | inactive: -1.11%
CN(C)C(=O)OCCc1n(C)cc[n+]1C | inactive: 0.5%
CC(C)=N/N=C(\N)N[N+](=O)[O-] | inactive: 1.21%
CCN(/C(=N/P(=O)(N1CCOCC1)N1CCOCC1)N1CCOCC1)c1ccc(OC)cc1 | inactive: 0.42%

Reference: PubChem BioAssay AID1416 (The Scripps Research Institute Molecular Screening Center, 2008)
